These results are taken from ChEMBL document CHEMBL3351553 (J Med Chem, 2014).

By UniProt entry, the sequences of proteins in these tests, tags left out. Where a name states a change or a piece, a line headed by the entry shows the natural chain unless it says otherwise.
UniProt P0A0K8: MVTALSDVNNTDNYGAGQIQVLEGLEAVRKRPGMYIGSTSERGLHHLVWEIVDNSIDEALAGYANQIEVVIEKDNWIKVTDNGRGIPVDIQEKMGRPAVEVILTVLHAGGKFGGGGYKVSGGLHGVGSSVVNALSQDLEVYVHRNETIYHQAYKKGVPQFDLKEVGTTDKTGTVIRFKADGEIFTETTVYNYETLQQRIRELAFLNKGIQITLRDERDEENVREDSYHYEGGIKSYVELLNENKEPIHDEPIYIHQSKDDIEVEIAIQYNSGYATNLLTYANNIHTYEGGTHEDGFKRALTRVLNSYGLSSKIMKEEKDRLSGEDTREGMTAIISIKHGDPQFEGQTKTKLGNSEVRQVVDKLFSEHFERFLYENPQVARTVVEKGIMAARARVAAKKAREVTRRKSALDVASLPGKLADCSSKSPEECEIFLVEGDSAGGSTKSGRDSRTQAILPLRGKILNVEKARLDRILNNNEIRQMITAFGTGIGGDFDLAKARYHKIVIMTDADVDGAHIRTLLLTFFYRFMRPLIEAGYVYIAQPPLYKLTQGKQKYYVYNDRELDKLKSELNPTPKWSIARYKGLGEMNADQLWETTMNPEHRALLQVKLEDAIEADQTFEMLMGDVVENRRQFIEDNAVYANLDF
UniProt P20831: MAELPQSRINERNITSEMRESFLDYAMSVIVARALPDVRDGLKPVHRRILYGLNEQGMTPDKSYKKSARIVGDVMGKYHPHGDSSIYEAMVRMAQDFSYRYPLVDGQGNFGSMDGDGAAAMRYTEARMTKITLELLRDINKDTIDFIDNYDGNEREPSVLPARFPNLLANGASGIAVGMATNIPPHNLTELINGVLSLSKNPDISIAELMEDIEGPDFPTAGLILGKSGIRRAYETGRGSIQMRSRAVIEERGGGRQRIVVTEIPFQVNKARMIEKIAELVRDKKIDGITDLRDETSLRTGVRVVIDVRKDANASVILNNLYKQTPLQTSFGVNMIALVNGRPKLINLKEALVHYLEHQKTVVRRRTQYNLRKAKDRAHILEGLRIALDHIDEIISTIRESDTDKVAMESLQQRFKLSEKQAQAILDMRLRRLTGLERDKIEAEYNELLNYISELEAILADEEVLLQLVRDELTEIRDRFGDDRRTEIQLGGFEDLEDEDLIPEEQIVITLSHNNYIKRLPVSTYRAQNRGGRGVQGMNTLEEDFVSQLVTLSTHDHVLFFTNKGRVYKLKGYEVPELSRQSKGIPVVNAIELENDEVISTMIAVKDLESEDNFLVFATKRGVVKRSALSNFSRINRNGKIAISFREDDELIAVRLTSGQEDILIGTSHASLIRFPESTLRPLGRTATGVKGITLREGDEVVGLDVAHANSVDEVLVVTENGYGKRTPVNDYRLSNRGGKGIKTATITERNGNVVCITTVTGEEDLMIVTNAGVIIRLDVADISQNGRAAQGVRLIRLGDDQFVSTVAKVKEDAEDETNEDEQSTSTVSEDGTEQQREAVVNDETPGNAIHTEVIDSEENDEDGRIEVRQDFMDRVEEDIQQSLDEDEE

A value given as a limit tells only on which side of the number the result lay.

In the assay the target is DNA gyrase (Staphylococcus aureus, UniProt P0A0K8+P20831). Nature of the assay: Inhibition of Staphylococcus aureus DNA gyrase assessed as reduction in enzyme-catalyzed supercoiling of relaxed circular pBR322 DNA by agarose gel electrophoresis. It is filed as protein-complex assay.
Regarding `CC(C)(C)c1ccc(C(N)CCCN2CCC(C(O)(c3ccccc3)c3ccccc3)CC2)cc1` (stereo not drawn), the IC50 (usually the midpoint of a concentration-inhibition curve) is more than 500 µM.

For `CC(C)(C)c1ccc(C(=O)CN2CCC(C(O)(c3ccccc3)c3ccccc3)CC2)cc1`, the half-maximal inhibitory concentration (IC50) was determined as 73 µM.

As to `CC(C)(C)c1ccc(C(=O)CCCN2CCC(C(O)(c3ccccc3)c3ccccc3)CC2)cc1` [TERFENADONE], the IC50 came out at 93 µM.
